miR-122 sensor = miR-122 inhibition in Huh7 cells | Huh7 miR-122 Renilla luciferase sensor, 48 h; neutral wells = 0, positive control = 100 | activation (reporter increase), % at 12.5 µM | 340,000 tested, 0.3% active | AID 602342;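 active means mean replicate activation score at least 90 and every replicate individually at or above 90; inconclusive means only one of the two criteria met; inactive means neither criterion met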;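 further: higher luciferase means less miR-122 activity so hits act as miR-122 inhibitors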
Yeast UUG start = modulators of start codon recognition fidelity in yeast; S. cerevisiae UUG-firefly luciferase reporter, luminescence/redox ratio; activity score, % at 18.7 µM; 0.13% of 350,000 active;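 active = replicate mean at a twofold rise or more, about +100% in these data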;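 also: firefly luciferase made from a UUG start codon reports start codon fidelity; reporter light over untreated wells divided by growth signal over untreated wells; some hits fall short of that in this replicate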
HIV Env fusion = blocks HIV Env-driven cell-cell fusion | HeLa-JRFL Env/CEM21 cell fusion, luciferase | inhibition, % at 12.3 µM | 360,000 tested, 1.1% active;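 active means mean replicate inhibition score of at least 50 and every replicate individually at or above 50; inconclusive means only one of the two criteria met; inactive means mean below 50 and not all replicates reaching 50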;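 further: 0% = plate neutral controls and 100% = maraviroc near 300 nM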
Cneo AK release = causes C. neoformans cell lysis. 360,000 tested, 0.2% active. adenylate kinase release luminescence, 4 h; normalised: neutral wells 0, clomiphene wells 100. lysis activity, % at 15 µM;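 active means mean lysis activity across replicates of at least 80%, whatever share of replicates individually reach that level; inactive means mean lysis activity below 80%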
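Schedule: static 4 h at 37 °C with compound, 1 h detection; system: C. neoformans cells; benchmarks: Clomiphene as positive control; buffer or medium: fresh YPD medium; measure: luminescence rise reflecting yeast cell lysis; measured by: luminescent adenylate kinase detection reagent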
FN deposit inh = fibronectin deposition inhibition; inhibition, % at 12.6 µM; 350,000 tested, 0.086% active; AH1F fibroblasts, Alexa488-fibronectin deposition fluorescence, overnight;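 active means mean inhibition across replicates of 30% or more, regardless of how many single replicates reach that level; inconclusive means mean under 30% yet at least half of replicates reach 30%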;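 further: positive control wells lacked labelled fibronectin entirely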
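Material: AH1F fibroblast monolayer depositing Alexa488-labelled fibronectin into matrix | Input: 10000 AH1F cells/well | Medium: DMEM plus 2% serum, read in PBS | Reagent: Alexa488-fibronectin, 24 nM final in well | Compound dosing: One dose per compound, pinned | Schedule: 1 h adhesion, overnight exposure | Measured by: Fluorescence at 485 nm excitation, 525 nm emission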
PGC1a acetyl inh = lowers PGC1a acetylation signal in U2OS cells; 350,000 tested, 0.17% active; inhibition, % at 15.6 µM; AlphaScreen anti-acetyl-lysine; with virally co-expressed GCN5 acetyltransferase; AID 651687;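 active means every replicate shows inhibition of at least 40%; inconclusive means mean inhibition at least 40% but some replicate below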;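 further: 0% = neutral control wells and 100% = positive control wells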
Active calls of the source: *; ? = inconclusive; . = not tested or not shown; [ ] = another dose, or the depositor's remark. Most compounds without a hit are left out; they make up all but 1.5% or so of the library.

Assay codes – A = miR-122 sensor; B = Yeast UUG start; C = HIV Env fusion; D = Cneo AK release; E = FN deposit inh; F = PGC1a acetyl inh
> C[C@@H]1CCCCO[C@H](CN(C)S(=O)(=O)c2ccccc2)[C@H](C)CN([C@H](C)CO)C(=O)c2cc(NC(=O)Nc3ccc(C(F)(F)F)cc3)ccc2O1
  A: -5.2[16.7 µM]	B: -1.0	C: 20.3[16.7 µM]	D: 3.0	E: 5.9	F: 3.4

> CCOc1cc(/C=C2\CN(CC)C/C(=C\c3ccc(O)c(OCC)c3)C2=O)ccc1O
  A: -35.8	B: -3.9	C: 66.6*	D: 0.0	E: 0.6	F: 24.5

> COCCN(C(=O)CCl)C(C(=O)NC1CCCCC1)c1ccccc1C (stereo not given)
  A: -6.1	B: -14.0	C: 60.1*	D: -1.6	E: -3.2	F: 6.2

> COc1cc2c(cc1OC)C(c1ccc(N(C)C)cc1)CC(=O)N2 (stereo not given)
  A: -1.0	B: -3.0	C: .	D: 0.5	E: .	F: 2.0

> O=C(NCCCNC(=O)c1ccco1)c1cccc(F)c1
  A: .	B: -17.5	C: 12.2	D: 2.0	E: 0.8	F: .

> CCOc1ccc(CCNC(=O)c2[nH]c(C)c(C(C)=O)c2CC)cc1OCC
  A: .	B: .	C: -11.6	D: .	E: 5.2	F: .

> CCc1c(C(=O)Nc2cc(C)cc(C)c2)[nH]c(C)c1C(C)=O
  A: 120.9*	B: .	C: -47.5	D: .	E: -1.8	F: .

> Cc1nnc(SCC(=O)Nc2ccc3c(c2)OCCO3)s1
  A: 4.3	B: .	C: .	D: .	E: .	F: 10.5

> CC1(Cc2ccccc2C#N)C(=O)Nc2cc(-c3ccccc3Cl)ccc21 (stereo not given)
  A: -3.1	B: -10.2	C: 56.5*	D: -1.1	E: 9.6	F: .

> CC1(Cc2ccc(C(F)(F)F)nc2)C(=O)Nc2cc(-c3ccccc3Cl)ccc21 (stereo not given)
  A: 4.6	B: -15.0	C: 70.4*	D: -1.8	E: -5.3	F: -18.4

> CCc1ccc2c(c1)NC(=O)C2(C)Cc1ccc(F)cc1 (stereo not given)
  A: -3.7	B: -2.6	C: -13.2	D: -0.9	E: 6.0	F: .

> CC1(Cc2ccccc2Cl)C(=O)Nc2c(Cl)cccc21 (stereo not given)
  A: 3.5	B: 0.9	C: 3.8	D: -6.4	E: -0.4	F: -27.0

> Cc1c(Cl)ccc2c(C(=O)O)cc(-c3ccccc3)nc12
  A: 23.5	B: -2.4	C: -0.8	D: -3.0	E: -5.1	F: 7.6

> CCOC(=O)c1c(S(=O)(=O)Nc2ccc(F)cc2Cl)c(C)n(C)c1C
  A: 86.9	B: -7.6	C: 6.1	D: 1.3	E: -18.0	F: -7.3

> O=C(CN1C(=O)c2ccccc2S1(=O)=O)c1ccc2c(c1)OCCO2
  A: 0.7	B: -9.7	C: 84.2*	D: 1.6	E: 6.0	F: -7.2

> O=C(CN1C(=O)c2ccccc2S1(=O)=O)c1ccc2c(c1)OCCCO2
  A: 1.1	B: -6.2	C: 90.7*	D: -14.4	E: -1.2	F: -3.9

> O=C(CN1C(=O)c2ccccc2S1(=O)=O)c1ccc(Cl)cc1Cl
  A: 3.3	B: -8.8	C: 62.0*	D: -9.2	E: 0.3	F: .

> O=C(CN1C(=O)c2ccccc2S1(=O)=O)c1ccccc1F
  A: -9.0	B: -18.1	C: 32.7	D: -0.5	E: 3.8	F: -6.6

> O=C(CN1C(=O)c2ccccc2S1(=O)=O)c1ccc(F)cc1
  A: -3.0	B: -4.2	C: ?	D: -1.1	E: -4.0	F: -6.3

> CC(C)NCC(O)c1cc(O)cc(O)c1 (stereo not given)
  A: -4.1	B: -9.1	C: 7.6	D: 1.5	E: .	F: -2.8

> CC(=O)c1c(C)[nH]c(C(=O)CSc2nnc(C3CCCCC3)n2N)c1C
  A: .	B: -2.5	C: 63.5*	D: 1.0	E: -7.7	F: -14.5

> Nn1c(SCC(=O)N2CCCC2)nnc1C1CCCCC1
  A: 0.2	B: -10.4	C: 29.7	D: 0.4	E: -2.9	F: 14.1

> COC(=O)c1c(NS(=O)(=O)c2ccc3ccccc3c2)sc2c1CCCC2
  A: 7.5	B: -8.1	C: -12.5	D: 3.9	E: -13.5	F: -15.0

> C[C@@H]1CN([C@@H](C)CO)S(=O)(=O)c2ccc(C3=CCCC3)cc2O[C@@H]1CN(C)C(=O)C1CCOCC1
  A: -27.6[16.7 µM]	B: 4.9	C: 69.7*[16.7 µM]	D: -5.7	E: -1.1	F: -12.2

> C[C@H](CO)N1C[C@H](C)[C@@H](CN(C)C(=O)C2CCOCC2)Oc2cc(C3=CCCC3)ccc2S1(=O)=O
  A: 25.8[16.7 µM]	B: 5.3	C: 0.0[16.7 µM]	D: -0.3	E: 10.0	F: -7.8

Record cards, from the list above. Order of values: miR-122 sensor | Yeast UUG start | HIV Env fusion | Cneo AK release | FN deposit inh | PGC1a acetyl inh
O=C(CN1C(=O)c2ccccc2S1(=O)=O)c1ccccc1F as listed: -9.0 | -18.1 | 32.7 | -0.5 | 3.8 | -6.6
CCOc1ccc(CCNC(=O)c2[nH]c(C)c(C(C)=O)c2CC)cc1OCC as listed: . | . | -11.6 | . | 5.2 | .
CC1(Cc2ccc(C(F)(F)F)nc2)C(=O)Nc2cc(-c3ccccc3Cl)ccc21 (stereo not given) as listed: 4.6 | -15.0 | 70.4* | -1.8 | -5.3 | -18.4

(continued)
Assay codes – A = miR-122 sensor; B = Yeast UUG start; C = HIV Env fusion; D = Cneo AK release; E = FN deposit inh; F = PGC1a acetyl inh
> C[C@H](CO)N1C[C@H](C)[C@@H](CN(C)CC2CCCC2)Oc2cc(C3=CCCCC3)ccc2S1(=O)=O
  A: 83.9[16.7 µM]	B: 21.0	C: 56.3*[16.7 µM]	D: 10.5	E: .	F: -14.6

> C[C@H](CO)N1C[C@H](C)[C@H](CN(C)Cc2ccccc2F)Oc2cc(C3=CCCC3)ccc2S1(=O)=O
  A: -26.6[16.7 µM]	B: 23.1	C: 68.4*[16.7 µM]	D: 101.4*	E: 8.4	F: -18.4

> C[C@@H]1CN([C@@H](C)CO)S(=O)(=O)c2ccc(C3=CCCCC3)cc2O[C@H]1CN(C)CC1CCCC1
  A: 5.9[16.7 µM]	B: 12.8	C: 40.1[16.7 µM]	D: 1.5	E: .	F: -9.3

> Cn1nnc2cc(C(=O)NC3CC3)ccc21
  A: -3.2	B: -9.4	C: .	D: 0.1	E: .	F: 0.3

> Cc1ccc(S(=O)(=O)N2CCN(C(=O)CC(C)C)CC2)cc1
  A: 2.9	B: .	C: -14.3	D: .	E: 3.1	F: 1.2

> CO[C@@H]1CN(C)C(=O)c2cc(NS(C)(=O)=O)ccc2OC[C@H](C)N(C(=O)C2CCOCC2)C[C@H]1C
  A: .	B: .	C: -0.1[16.7 µM]	D: -1.1	E: -1.2	F: 1.7

> Cc1ccc(S(=O)(=O)N2CCC3(CC2)OCCN3S(=O)(=O)c2cccs2)cc1
  A: ?	B: -10.8	C: 0.2	D: -2.5	E: 8.5	F: -8.4

> COc1ccc(OC)c(S(=O)(=O)N2CCC3(CC2)OCCN3S(=O)(=O)c2cccs2)c1
  A: 107.4*	B: -9.8	C: 15.7	D: 1.8	E: 4.7	F: .

> O=S(=O)(c1ccc(Cl)cc1)N1CCC2(CC1)OCCN2S(=O)(=O)c1cccs1
  A: 135.3*	B: .	C: 23.6	D: .	E: 2.7	F: -3.8

> COc1ccc(OC)c(S(=O)(=O)N2CCNCC2)c1
  A: 171.6*	B: 7.0	C: -6.8	D: 0.9	E: -17.5	F: 5.2

> Cc1ccc(O)c(-c2cc(C(F)(F)C(F)F)nc(-c3ccccc3)n2)c1
  A: -5.5	B: -19.4	C: .	D: -0.9	E: .	F: 9.6

> Oc1ccc(Cl)cc1-c1cc(C(F)(F)C(F)F)nc(-c2ccccc2)n1
  A: .	B: .	C: 66.5*	D: .	E: .	F: .

> C[C@@H]1CN([C@H](C)CO)C(=O)c2cc(C#CCN(C)C)cnc2O[C@H]1CN(C)C(=O)Cc1ccccc1
  A: 9.6[16.7 µM]	B: 3.4	C: 1.2[16.7 µM]	D: 1.0	E: .	F: 1.3

> O=C(C[C@@H]1CC[C@H](NC(=O)Cc2ccccn2)[C@@H](CO)O1)NCCc1ccccc1
  A: .	B: 10.1	C: -5.2[16.7 µM]	D: 95.2*	E: 1.2	F: 7.1

> C[C@H](NC(=O)C[C@H]1CC[C@@H](NC(=O)Cc2ccccn2)[C@@H](CO)O1)c1ccccc1
  A: 3.1[16.7 µM]	B: -5.4	C: 0.5[16.7 µM]	D: 96.3*	E: 1.4	F: -7.9

> O=C(c1ccccc1)N1CCC(c2nc(-c3ccc(S(=O)(=O)NCC4CCCO4)cc3)no2)CC1 (stereo not given)
  A: 20.4	B: .	C: 87.0*	D: .	E: 8.0	F: .

> CC(C)(C)c1ccc(-n2ncc3c2CCCC3NC(=O)CN2CCCC2=O)cc1 (stereo not given)
  A: .	B: -7.5	C: 68.4*	D: -2.7	E: -4.2	F: .

> COc1ccc(NS(=O)(=O)c2cc(Br)cc3c2N(C(C)=O)CC3)cc1
  A: 189.3*	B: -18.0	C: 28.0	D: -1.0	E: -1.3	F: 3.2

> COC(=O)CS(=O)(=O)c1cc(Br)cc2c1N(C(C)=O)CC2
  A: 2.0	B: -3.7	C: .	D: -0.6	E: .	F: 14.1

> COc1ccc(OCC(=O)NNC(=O)CCc2ccccc2)cc1
  A: -4.1	B: -8.6	C: 1.8	D: 0.7	E: -12.6	F: 4.8

Assay outcomes from PubChem BioAssay.
